From patent US6908919B2, “Substituted polycyclic aryl and heteroaryl pyrazinones useful for selective inhibition of the coagulation cascade” (Pharmacia Corporation, priority 1999, dated 2005) come the findings set out here.

Chains of the proteins cited; added tags and fusions are not shown. Residues count along the entry.
UniProt P00742, 41-179 limits assumed: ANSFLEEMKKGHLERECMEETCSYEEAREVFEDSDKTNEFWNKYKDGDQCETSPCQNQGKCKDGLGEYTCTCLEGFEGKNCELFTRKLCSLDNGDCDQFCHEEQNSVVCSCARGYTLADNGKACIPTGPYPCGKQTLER
UniProt P00742, 235-488 limits assumed: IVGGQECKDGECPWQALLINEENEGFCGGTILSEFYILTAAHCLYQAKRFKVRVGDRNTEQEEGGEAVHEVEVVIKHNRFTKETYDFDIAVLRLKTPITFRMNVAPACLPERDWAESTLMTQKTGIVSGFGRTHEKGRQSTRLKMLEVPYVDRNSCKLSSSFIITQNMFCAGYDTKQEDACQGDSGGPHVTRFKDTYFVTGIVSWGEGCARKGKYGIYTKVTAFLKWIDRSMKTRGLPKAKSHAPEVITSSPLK
UniProt P08709, 61-212 limits assumed: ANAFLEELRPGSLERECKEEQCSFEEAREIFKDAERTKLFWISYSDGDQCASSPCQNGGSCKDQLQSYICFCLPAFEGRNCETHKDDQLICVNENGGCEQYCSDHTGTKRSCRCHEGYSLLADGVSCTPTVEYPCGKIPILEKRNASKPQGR
UniProt P08709, 213-466 limits assumed: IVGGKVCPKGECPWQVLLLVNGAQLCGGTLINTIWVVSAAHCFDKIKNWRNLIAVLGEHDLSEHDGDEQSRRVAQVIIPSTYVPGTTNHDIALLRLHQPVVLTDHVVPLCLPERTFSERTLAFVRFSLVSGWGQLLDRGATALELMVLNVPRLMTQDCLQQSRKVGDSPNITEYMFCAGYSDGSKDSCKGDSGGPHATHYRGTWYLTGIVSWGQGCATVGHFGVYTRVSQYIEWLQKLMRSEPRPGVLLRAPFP

Each structure is given as a SMILES string.

Assay [1] addresses Human factor Xa (Homo sapiens, UniProt P00742). The experiment in a line: Xa Assay.
For assay [2], the target named is recombinant soluble tissue factor and recombinant human factor VIIa (TF-VIIa) (Homo sapiens, UniProt P08709). Put plainly: TF-VIIa Assay.

Regarding `O=C(Cn1c(-c2ccc(-c3ccccc3)cc2)c(Cl)nc(NCCc2ccccc2)c1=O)NCCc1cccnc1` [Example E-0113], in assay [1], the “% Inhibition Factor Xa (100 µM)” value was determined as 3%. Moreover, the “% Inhibition TF-VIIa (100 µM)” value in assay [2] is given as 14%.

In the case of `O=C(Cn1c(-c2ccc(-c3ccccc3)cc2)c(Cl)nc(NCCc2cccc(Cl)c2)c1=O)NCCc1ccncc1` [Example E-0051], the “% Inhibition TF-VIIa (100 µM)” value in assay [2] was 0%.

Take `CC(C)Nc1nc(Cl)c(-c2cc(N)cc(C(=O)O)c2)n(CC(=O)NCc2ccc(C(=N)N)cc2)c1=O` [Example 123]: the “% Inhibition Factor Xa (30 µM)” value in assay [1] (at 30 µM inhibitor) is on record as 2%.
